According to US20230150929A1, “SELECTIVE NON-CYCLIC NUCLEOTIDE ACTIVATORS FOR THE CAMP SENSOR EPAC1” (The Board of Regents of The University of Texas System, priority 2020, published 2023):
pIC50: −log10 of the molar value.

Chains of the proteins cited; added tags and fusions are not shown. Lines headed by an entry give the natural chain unless they say otherwise; changes in a name come on top. Residues count along the entry.
UniProt O95398, 211-360 limits assumed: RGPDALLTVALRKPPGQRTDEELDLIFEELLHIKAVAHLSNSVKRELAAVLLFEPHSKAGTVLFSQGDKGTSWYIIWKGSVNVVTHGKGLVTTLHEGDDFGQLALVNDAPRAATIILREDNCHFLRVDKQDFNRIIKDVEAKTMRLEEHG
UniProt O95398, 191-923 limits assumed, stated change not applied: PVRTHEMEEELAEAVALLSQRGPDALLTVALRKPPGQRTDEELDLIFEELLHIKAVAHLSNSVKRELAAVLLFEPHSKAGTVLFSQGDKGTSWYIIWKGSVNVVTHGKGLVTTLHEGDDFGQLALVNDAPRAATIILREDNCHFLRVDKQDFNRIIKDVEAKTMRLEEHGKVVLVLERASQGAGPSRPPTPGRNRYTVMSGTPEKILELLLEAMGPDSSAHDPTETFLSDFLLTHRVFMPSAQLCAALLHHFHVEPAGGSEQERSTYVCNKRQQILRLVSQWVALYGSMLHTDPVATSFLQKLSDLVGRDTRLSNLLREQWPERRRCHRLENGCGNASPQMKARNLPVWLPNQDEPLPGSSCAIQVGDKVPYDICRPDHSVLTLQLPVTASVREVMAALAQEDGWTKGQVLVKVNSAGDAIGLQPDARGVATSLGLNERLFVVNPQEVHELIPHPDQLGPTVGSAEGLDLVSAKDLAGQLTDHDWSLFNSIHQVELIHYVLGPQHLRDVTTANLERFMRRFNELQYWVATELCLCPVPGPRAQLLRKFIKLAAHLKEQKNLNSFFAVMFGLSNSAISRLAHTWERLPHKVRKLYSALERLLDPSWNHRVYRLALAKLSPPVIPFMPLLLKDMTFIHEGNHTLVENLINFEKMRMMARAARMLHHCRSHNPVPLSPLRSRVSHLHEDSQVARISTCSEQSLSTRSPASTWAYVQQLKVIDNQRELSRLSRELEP

How the values were obtained:
EPAC1-ΔDEP (aa. 149-881) = EPAC1-ΔDEP (aa. 149-881) (Homo sapiens, UniProt O95398); test: 8-NBD-cAMP competition binding assay, EPAC1-ΔDEP; conditions: read-out: EPAC1-ΔDEP IC50; eleven-point dose-response 1-100 µM; mean ± SEM
EPAC1-CNBD = EPAC1-CNBD (Homo sapiens, UniProt O95398); test: 8-NBD-cAMP competition binding assay, EPAC1-CNBD; conditions: compound 10 µM, EPAC1-CNBD 0.8 µM, 8-NBD-cAMP 62.5 nM; mean ± SEM; lower RFI = stronger binding

Question: With Cc1ccc(S(=O)(=O)NC(=O)COc2ccc3ccccc3c2)c(C)c1 as the compound, how does the pIC50 (EPAC1-ΔDEP (aa. 149-881)) read?
Answer: 5.17

Question: What about the “RFI (%) (relative fluorescence intensity), Table 1” value (EPAC1-CNBD) of the same compound?
Answer: 61 ± 3%

Question: What about the “RFI (%) (relative fluorescence intensity), Table 3” value (EPAC1-CNBD) of the same compound?
Answer: 61 ± 3%

Question: What about the “RFI (%) (relative fluorescence intensity), Table 4” value (EPAC1-CNBD) of the same compound?
Answer: 61 ± 3%
